Counter-ions that a name gives are not always drawn. Like-named read-outs stand apart in the source and are kept apart here.

Amino acid sequences for entries named in this document (tags omitted). Residues count along the entry.
UniProt P07949, 658-1114: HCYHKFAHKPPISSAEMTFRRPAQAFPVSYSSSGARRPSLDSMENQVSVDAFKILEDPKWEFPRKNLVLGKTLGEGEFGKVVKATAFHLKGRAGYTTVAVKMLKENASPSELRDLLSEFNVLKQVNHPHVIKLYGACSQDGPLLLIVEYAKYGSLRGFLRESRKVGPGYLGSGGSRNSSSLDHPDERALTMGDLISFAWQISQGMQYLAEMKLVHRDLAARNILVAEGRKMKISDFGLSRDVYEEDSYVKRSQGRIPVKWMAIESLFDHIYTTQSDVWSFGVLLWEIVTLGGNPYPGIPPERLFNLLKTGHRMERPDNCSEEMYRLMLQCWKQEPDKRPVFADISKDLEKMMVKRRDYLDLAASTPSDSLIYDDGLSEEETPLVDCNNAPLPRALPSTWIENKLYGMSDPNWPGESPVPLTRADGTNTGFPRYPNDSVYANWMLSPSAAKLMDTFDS

These results are taken from US10023570B2 (Array BioPharma, Inc., priority 2015, dated 2018).

The test deals with N-terminal GST tagged recombinant human RET cytoplasmic domain (aa 658-end), wild type RET kinase (Homo sapiens (Human), UniProt P07949). As to the kind of experiment: RET Enzyme Assay (HTRF KinEASE-TK), wild type RET. Type of test: biochemical.

The term IC50 denotes the concentration at which inhibition is half-maximal. For the compound `Cn1cc(-c2cc(-c3ccc(N4CCN(C(=O)OC(C)(C)C)CC4)nc3)c3ccnn3c2)cn1` [Example 311, tert-butyl 4-(5-(6-(1-methyl-1H-pyrazol-4-yl)pyrazolo[1,5-a]pyridine-4-yl)pyridine-2-yl)piperazine-1-carboxylate], where the note is “wild type RET, 1 mM ATP”, the concentration for half-maximal inhibition (IC50) turned out to be 3050 nM.

Consider `C[C@@H](c1ccccc1)N1CCN(c2ccc(-c3cc(-c4cnn(C)c4)cn4ncc(C#N)c34)cn2)CC1` [Example 422, (S)-6-(1-methyl-1H-pyrazol-4-yl)-4-(6-(4-(1-phenylethyl)piperazin-1-yl)pyridine-3-yl)pyrazolo[1,5-a]pyridine-3-carbonitrile dihydrochloride], for which the half-inhibitory concentration (IC50) worked out at 12.9 nM.
